Laboratory results as given in publication PMC11361748.

Molecular target: keratin 17 (human (endogenous in A431)) (UniProt Q04695)
Assay: proximity ligation; Duolink PLA on fixed, permeabilised parental A431 keratinocytes treated with acetone vehicle or TPA for 30 min; PLA dots per cell; KRT17 null cells compared

With “Receptor for Activated C Kinase 1 (from UniProt P63244 1-317) (natural protein)” the fold change of PLA signal 30 min after TPA against acetone control was 2.5 fold.
